Experimental data taken from PubChem BioAssay (NCATS).
The list shows a part of the results, in another mix than the full data. Results filed as inconclusive are left out. Active and inactive are the calls of the source. Unless noted, the call rests on the fitted dose curve; in most records, active means well fitted curve in the direction sought with a large enough effect; inconclusive means small, poorly fitted or top-dose-only effect, or another doubt; inactive means no such curve, though single readings can be large; an effect the other way counts as inactive or inconclusive.

By UniProt entry, the sequences of proteins in these tests, tags left out.
UniProt P08684, whole entry: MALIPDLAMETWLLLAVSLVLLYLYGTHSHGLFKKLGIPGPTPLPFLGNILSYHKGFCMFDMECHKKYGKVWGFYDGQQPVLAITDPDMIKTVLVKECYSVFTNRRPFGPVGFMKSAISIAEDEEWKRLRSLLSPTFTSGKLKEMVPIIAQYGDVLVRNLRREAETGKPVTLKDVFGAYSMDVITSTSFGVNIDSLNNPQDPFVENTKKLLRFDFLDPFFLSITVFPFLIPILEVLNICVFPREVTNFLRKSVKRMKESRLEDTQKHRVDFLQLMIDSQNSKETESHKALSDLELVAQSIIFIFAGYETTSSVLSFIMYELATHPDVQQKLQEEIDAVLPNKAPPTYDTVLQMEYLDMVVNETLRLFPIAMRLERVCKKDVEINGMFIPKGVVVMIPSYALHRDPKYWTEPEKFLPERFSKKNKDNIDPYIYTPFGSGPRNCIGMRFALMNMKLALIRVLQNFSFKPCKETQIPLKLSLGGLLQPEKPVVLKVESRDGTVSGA
UniProt Q07343, whole entry: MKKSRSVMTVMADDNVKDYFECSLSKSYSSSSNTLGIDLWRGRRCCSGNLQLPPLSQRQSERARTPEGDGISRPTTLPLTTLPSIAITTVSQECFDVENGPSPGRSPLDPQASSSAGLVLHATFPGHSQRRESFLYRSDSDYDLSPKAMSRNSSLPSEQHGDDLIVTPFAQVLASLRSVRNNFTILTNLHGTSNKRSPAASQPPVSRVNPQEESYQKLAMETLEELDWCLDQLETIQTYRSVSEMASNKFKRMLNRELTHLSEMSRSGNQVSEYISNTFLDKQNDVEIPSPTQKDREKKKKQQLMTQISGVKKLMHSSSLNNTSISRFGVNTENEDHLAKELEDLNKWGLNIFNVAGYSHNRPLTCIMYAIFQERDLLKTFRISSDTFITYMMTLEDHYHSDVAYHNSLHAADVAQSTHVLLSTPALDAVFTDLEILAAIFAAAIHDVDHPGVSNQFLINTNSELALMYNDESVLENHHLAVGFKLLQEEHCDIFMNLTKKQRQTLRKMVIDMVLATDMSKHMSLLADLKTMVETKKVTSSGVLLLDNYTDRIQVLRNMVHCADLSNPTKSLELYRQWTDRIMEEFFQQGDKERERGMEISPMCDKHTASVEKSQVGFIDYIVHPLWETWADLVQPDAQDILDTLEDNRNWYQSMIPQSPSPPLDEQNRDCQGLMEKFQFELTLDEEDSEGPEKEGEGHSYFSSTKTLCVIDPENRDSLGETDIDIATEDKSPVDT

Tests used:
[1] = Cell Viability - Mesenchymal (AID 546); conditions: mesenchymal cells viability, qHTS; at 91.7 µM (top of the series);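 further: cells exposed to compound for 40 hours before reading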
How it was run: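 CellTiter-Glo luminescence (intracellular ATP, 20 min room temperature) after 40 hr compound exposure at 37 °C of 1000 glomerulus-derived human kidney mesenchymal cells/well; AC50 values obtained by fitting qHTS concentration-response data to the Hill equation.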

[2] = Cellular Toxicity (caspase-3) HepG2 (AID 654); conditions: HepG2 caspase-3 activation, luminescence, 0% = DMSO only, 100% = tamoxifen; at 92.2 µM (top of the series);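 further: cells exposed to compound for 16 hours before reading; 0% = DMSO alone and 100% = caspase signal from 100 µM tamoxifen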
How it was run: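 Luminescent Caspase-Glo 3/7 readout after 16 hr compound exposure of human hepatocellular carcinoma HepG2 cells at 37 °C; qHTS concentration-response, normalized DMSO = 0%, 100 uM tamoxifen = 100%; AC50 by standard Hill equation.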

[3] = Cellular Toxicity (caspase-3) Jurkat (AID 655); conditions: Jurkat caspase-3 activation, luminescence, DMSO = 0%, tamoxifen = 100%; at 92.2 µM (top of the series);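 further: cells exposed to compound for 16 h at 37 °C before reading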
How it was run: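 Jurkat cells (5000/well) in complete medium exposed 16 h at 37 C; caspase-3/7 activity read by Caspase-Glo luminescence after 20 min at room temperature. Normalized to DMSO and 100 uM tamoxifen; AC50 from Hill fits.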

[4] = Cellular Toxicity (caspase-3) HUV-EC-C (AID 656); conditions: HUV-EC-C cells, caspase-3 activation (apoptosis), vehicle = 0, 100 µM tamoxifen = 100%; at 92.2 µM (top of the series)
How it was run: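 HUV-EC-C cells (1000/well) in complete medium, compound-treated 16 h at 37 °C; caspase-3/7 activity read by Caspase-Glo 3/7 luminescence. Normalized to DMSO (basal) and 100 uM tamoxifen (100%); AC50 from Hill-equation concentration-response fits.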

[5] = Cellular Toxicity (caspase-3) SHSY5Y (AID 657); conditions: SH-SY5Y caspase-3 activation, DMSO zero, 10 µM staurosporine = 100%; at 91.7 µM (top of the series)
How it was run: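 SH-SY5Y human neuroblastoma cells, 1500/well, exposed to compound for 16 hours at 37 °C in complete medium. Caspase-3/7 activity read by Caspase-Glo luminescence after 1 hr at room temperature, normalized to DMSO and 10 uM staurosporine; AC50 from Hill fit.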

[6] = Cellular Toxicity (caspase-3) BJ (AID 658); conditions: BJ fibroblasts, luminescence, normalized: DMSO 0%, staurosporine 100%; at 91.7 µM (top of the series)
How it was run: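 Caspase-Glo 3/7 luminescence, read 1 hr after reagent at room temperature, in normal BJ fibroblasts exposed 16 hours at 37 °C. AC50 values from Hill-equation concentration-response, scaled between DMSO basal and 10 uM staurosporine as 100%.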

[7] = Cellular Toxicity (caspase-3) MRC-5 (AID 659); conditions: MRC-5 cells, luminescence, normalized: DMSO 0%, 10 µM staurosporine 100%; at 91.7 µM (top of the series)
How it was run: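 Luminescent Caspase-Glo 3/7 read-out (1 h, room temperature) after a 16 h, 37 °C compound exposure of MRC-5 lung fibroblasts at 1500 cells/well. Concentration-response AC50 from Hill equation; 0% DMSO, 100% 10 uM staurosporine.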

[8] = Cellular Toxicity (caspase-3) Mesangial (AID 660); conditions: mesangial cells, normalized: DMSO 0%, 100 µM tamoxifen 100%; at 91.7 µM (top of the series);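 further: cells exposed to compound for 16 h before the caspase read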
How it was run: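 Luminescent Caspase-Glo 3/7 readout (aminoluciferin substrate cleavage, 20 min RT) after 16 h compound exposure at 37 °C of normal human mesangial cells. Signal increase normalized between DMSO basal and 100 uM tamoxifen; Hill-equation AC50.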

[9] = Cellular Toxicity (caspase-3) SK-N-SH (AID 661); conditions: SK-N-SH caspase-3 activation, qHTS, DMSO as zero, staurosporine as full; at 91.7 µM (top of the series)
How it was run: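 Luminescent Caspase-Glo 3/7 read-out after 16 hr compound exposure of SK-N-SH neuroblastoma cells at 37 °C. Signal increase normalized to DMSO (basal) and 10 uM staurosporine (100%); AC50 from Hill equation fits of qHTS concentration-response data.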

[10] = Cellular Toxicity (caspase-3) H-4-II-E (AID 663); conditions: H-4-II-E rat hepatoma, scaled: DMSO 0%, 100 µM tamoxifen 100%; at 92.2 µM (top of the series);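 further: cells exposed to compound for 16 hr before readout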
How it was run: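 Caspase 3/7 activation measured by luminescent aminoluciferin substrate cleavage after 16 hr compound treatment of H-4-II-E cells in complete medium. Increase normalized between DMSO (basal) and 100 uM tamoxifen (100%); Hill-equation AC50 from concentration-response.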

[11] = Cellular Toxicity (caspase-3) Hek293 (AID 664); conditions: HEK293 caspase-3 activation, DMSO = 0%, 100 µM tamoxifen = 100%; at 92.2 µM (top of the series);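 further: cells exposed to compound for 16 h at 37 °C before readout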
How it was run: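 Luminescent Caspase-Glo 3/7 readout (aminoluciferin release) in HEK293 cells after 16 h compound treatment, 37 °C. Normalization: DMSO = basal, 100 uM tamoxifen = 100% stimulation. Concentration-response fitted with standard Hill equation for AC50.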

[12] = Cellular Toxicity (caspase-3) N2a (AID 665); conditions: N2a cells, luminescence, normalized: DMSO 0%, 10 µM staurosporine 100%; at 92.2 µM (top of the series);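 further: compound exposure lasted 16 h at 37 °C before readout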
How it was run: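 Luminescent Caspase-Glo 3/7 readout in N2a mouse neuroblastoma cells after 16 h compound exposure at 37 °C. Signal scaled to DMSO (basal) and 10 uM staurosporine (100%). Concentration-response fitted with Hill equation for AC50.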

[13] = Cellular Toxicity (caspase-3) NIH 3T3 (AID 666); conditions: NIH 3T3 caspase-3 activation, apoptosis/toxicity, 0% DMSO, 100% is 100 µM tamoxifen; at 92.2 µM (top of the series);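 further: 0% = DMSO basal and 100% = 100 µM tamoxifen stimulation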
How it was run: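 NIH 3T3, 1000 cells/well, 5 hr settle then 16 hr compound at 37°C; Caspase-Glo 3/7, 20 min RT, luminescence. DMSO = basal, 100 uM tamoxifen = 100%. Hill-equation AC50, qHTS.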

[14] = Cellular Toxicity (caspase-3) Renal Proximal Tubule (AID 667); conditions: renal proximal tubule cells, primary cells freshly taken from rat, solvent-only wells 0%, staurosporine 100%; at 91.7 µM (top of the series);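 further: cells exposed to compound for 16 hours at 37 °C before detection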
How it was run: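 Freshly isolated primary rat kidney proximal tubule cells, 1000/well, treated 16 hr at 37 °C, then Caspase-Glo 3/7 luminescence after 1 hr. Normalized to DMSO and 10 uM staurosporine; AC50 from Hill fit.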

[15] = molecular target: Cytochrome P450 3A4 (Homo sapiens) (UniProt P08684); assay: qHTS Assay for Inhibitors and Substrates of Cytochrome P450 3A4 (AID 884); conditions: recombinant CYP3A4, Luciferin-PPXE luminescence; at 57.1 µM (top of the series); further: on the % scale 0 is the no-effect control and ±100 the full control effect; nearly all actives have a fitted effect of over 50% in size
[16] = Cell Viability - LYMP2-001 (AID 921); conditions: LYMP2-001 lymphoblastoid cell viability; at 92.2 µM (top of the series);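 further: cells exposed to compound for 24 h at 37 °C; 0% = DMSO only and full inhibition = tetraoctylammonium bromide control wells; nearly all actives have a fitted effect of over 70% in size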
How it was run: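 Human lymphoblastoid LYMP2-001 cells, 2500 per well, in complete medium, treated 24 h at 37 C. Viability from cellular ATP by CellTiter-Glo luminescence; AC50 from Hill-equation fits of qHTS concentration-response.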

[17] = molecular target: 3',5'-cyclic-AMP phosphodiesterase 4B (Homo sapiens) (UniProt Q07343); assay: qHTS Assay for Inhibitors of PDE-IV (AID 607; active means well fitted activation curve with a large enough effect in the main read-out, with a control signal flat, not every such curve was filed as active; further: % of control where 0% means no effect); conditions: HEK293 ACTOne CNG channel cells, membrane potential fluorescence; at 22.9 µM (top of the series)
How it was run: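 Cell-based read-out of cAMP via a modified cyclic nucleotide-gated channel and membrane potential dye (535/590 nm) in HEK293 cells expressing PDE4 endogenously. Compounds tested up to 22.9 uM final; 100 uM RO 20-1724 reference.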

[18] = qHTS Assay for Identification of Small Molecule Agonists for Hypoxia Response Element Signaling Pathway (AID 914; active means well fitted activation curve with a large enough effect in the signal ratio, with a control signal flat, not every such curve was filed as active; the % refers to the signal ratio; further: % of control where 0% means no effect); conditions: ME-180 (cervical carcinoma) HRE-bla reporter, beta-lactamase ratio, CoCl2, 17 h; active compounds read high

CCOP(=O)(CC)OCC
inactive: activity change, negative = cytotoxicity [1] 5.08% | caspase-3 activation [2] -1% | caspase-3 activation [3] 0.234% | caspase-3 activation [4] 2.41% | caspase-3 activation [5] -3% | caspase-3 activation [6] 0.582% | caspase-3 activation [7] 0.0114% | caspase-3 activation [8] -0.688% | caspase-3 activation [9] 1.06% | caspase-3 activation [10] 1.71% | caspase-3 activation [11] 0.191% | caspase-3 activation [12] 0.797% | caspase-3 activation [13] -2.57% | caspase-3 activation [14] -5.2% | activity change, negative = inhibition [15] -13.6% | activity change, negative = cytotoxic [16] -3.86%

N1=C(c2nnc(-c3nn[nH]n3)nn2)NNN1
inactive: activation (PDE inhibition) [17] 10.3% | activation [18] -7.84%

CCC(C)(OO)OOC(C)(CC)OO (stereo not drawn)
inactive: activity change, negative = cytotoxicity [1] 4.88% | caspase-3 activation [2] 0.67% | caspase-3 activation [3] 4.56% | caspase-3 activation [4] 1.98% | caspase-3 activation [5] 2.79% | caspase-3 activation [6] -1.82% | caspase-3 activation [7] -0.827% | caspase-3 activation [8] 1.58% | caspase-3 activation [9] -2.48% | caspase-3 activation [10] -0.518% | caspase-3 activation [11] -2.34% | caspase-3 activation [12] -2.57% | caspase-3 activation [13] -0.493% | caspase-3 activation [14] 0.274% | activity change, negative = inhibition [15] -27.5% | activity change, negative = cytotoxic [16] -51.1%

C/C1=C2N=C(/C=C3N=C(/C(C)=C4\[N-][C@@](C)([C@H]5N=C1[C@@](C)(CCC(=O)NC[C@H](C)OP(=O)([O-])O[C@@H]1[C@H](O)[C@H](n6cnc7cc(C)c(C)cc76)O[C@@H]1CO)[C@@H]5CC(N)=O)[C@](C)(CC(N)=O)[C@H]4CCC(N)=O)[C@@](C)(CC(N)=O)[C@@H]\3CCC(N)=O)C(C)(C)[C@@H]/2CCC(N)=O.[C-]#N.[Co+3]
inactive: activation (PDE inhibition) [17] 13.8% | activation [18] 13.3%

Cc1ccc([N+](=O)[O-])cc1[N+](=O)[O-]
inactive: activity change, negative = cytotoxicity [1] 8.9% | caspase-3 activation [2] 1.11% | caspase-3 activation [3] 1.85% | caspase-3 activation [4] -1.52% | caspase-3 activation [5] -1.87% | caspase-3 activation [6] -0.553% | caspase-3 activation [7] 0.129% | caspase-3 activation [8] 1.45% | caspase-3 activation [9] -2.47% | caspase-3 activation [10] -0.686% | caspase-3 activation [11] 2.69% | caspase-3 activation [12] -3.21% | caspase-3 activation [13] -1.55% | caspase-3 activation [14] -6.85% | activity change, negative = inhibition [15] -22.6% | activity change, negative = cytotoxic [16] -8.64%

OCCSCCO
inactive: activity change, negative = inhibition [15] -1.48%

Cc1ccc([N+](=O)[O-])c([N+](=O)[O-])c1
inactive: activity change, negative = cytotoxicity [1] 0.719% | caspase-3 activation [2] 0.321% | caspase-3 activation [3] 11.2% | caspase-3 activation [4] -6.88% | caspase-3 activation [5] -2.18% | caspase-3 activation [6] 0.629% | caspase-3 activation [7] 1.48% | caspase-3 activation [8] -1.17% | caspase-3 activation [9] 1.05% | caspase-3 activation [10] 0.376% | caspase-3 activation [11] -0.933% | caspase-3 activation [12] -2.97% | caspase-3 activation [13] 27.8% | caspase-3 activation [14] -8.24%

O=[N+]([O-])c1cccc([N+](=O)[O-])c1
inactive: activity change, negative = cytotoxicity [1] 6.62% | caspase-3 activation [2] 0.152% | caspase-3 activation [3] 0.834% | caspase-3 activation [4] -0.599% | caspase-3 activation [5] 1.26% | caspase-3 activation [6] 0.995% | caspase-3 activation [7] 3.35% | caspase-3 activation [8] 0.259% | caspase-3 activation [9] -0.201% | caspase-3 activation [10] -0.891% | caspase-3 activation [11] 2.3% | caspase-3 activation [12] -1.16% | caspase-3 activation [13] -3.15% | caspase-3 activation [14] -8.17% | activity change, negative = inhibition [15] -20.4% | activity change, negative = cytotoxic [16] -0.32%
